Laboratory results from patent US8575197B2, “Pyrolinone derivative and pharmaceutical composition comprising the same” (Shionogi & Co., Ltd., priority 2008, dated 2013).

By UniProt entry, the sequences of proteins in these tests, tags left out.
UniProt P56373, whole entry: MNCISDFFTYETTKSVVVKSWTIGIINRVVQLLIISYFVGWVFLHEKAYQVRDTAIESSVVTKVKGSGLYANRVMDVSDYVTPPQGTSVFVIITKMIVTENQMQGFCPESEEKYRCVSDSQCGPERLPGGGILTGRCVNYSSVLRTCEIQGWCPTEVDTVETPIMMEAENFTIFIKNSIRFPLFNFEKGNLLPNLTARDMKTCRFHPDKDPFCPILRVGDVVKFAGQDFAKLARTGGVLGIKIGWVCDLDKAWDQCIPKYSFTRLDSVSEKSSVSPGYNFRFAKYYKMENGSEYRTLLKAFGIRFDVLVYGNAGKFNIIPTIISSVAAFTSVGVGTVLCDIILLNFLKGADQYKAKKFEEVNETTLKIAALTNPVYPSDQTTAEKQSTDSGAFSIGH

Molecular target: human P2X3 receptor (Homo sapiens (Human), UniProt P56373)
Experiment: P2X3 receptor inhibition, ATP-evoked Fluo-3 calcium fluorescence (FDSS 3000)
Type: cell-based
Conditions: read-out: P2X3 IC50; C6BU-1 cell transfected with human P2X3 receptor gene; ATP-evoked Fluo-3 fluorescence

SMILES | IC50
Cc1noc(-c2ccc(N3C(=O)C(O)=C(C(=O)C(C)C)C3c3ccccc3OC(C)C)cc2)n1 (stereo not shown) | 232 nM
Cc1nc(-c2ccc(N3C(=O)C(O)=C(C(=O)CC(C)C)C3c3ccccc3OCC#N)cc2)no1 (stereo not shown) | 174 nM
COc1ccccc1C1C(C(=O)CC(C)C)=C(O)C(=O)N1c1ccc(SC)cc1 (stereo not shown) | 125 nM
COc1ncccc1C1c2c(C(C)(C)C)n[nH]c2C(=O)N1c1ccc(N(C)C)cc1 (stereo not shown) | 505 nM
